Patent US20090042912A1, “DIPHENYLIMIDAZOLYL COMPOUNDS AS INHIBITORS OF beta-SECRETASE” (Wyeth, priority 2004, published 2009)

By UniProt entry, the sequences of proteins in these tests, tags left out. Residues count along the entry.
UniProt Q9Y5Z0, 63-518 limits assumed: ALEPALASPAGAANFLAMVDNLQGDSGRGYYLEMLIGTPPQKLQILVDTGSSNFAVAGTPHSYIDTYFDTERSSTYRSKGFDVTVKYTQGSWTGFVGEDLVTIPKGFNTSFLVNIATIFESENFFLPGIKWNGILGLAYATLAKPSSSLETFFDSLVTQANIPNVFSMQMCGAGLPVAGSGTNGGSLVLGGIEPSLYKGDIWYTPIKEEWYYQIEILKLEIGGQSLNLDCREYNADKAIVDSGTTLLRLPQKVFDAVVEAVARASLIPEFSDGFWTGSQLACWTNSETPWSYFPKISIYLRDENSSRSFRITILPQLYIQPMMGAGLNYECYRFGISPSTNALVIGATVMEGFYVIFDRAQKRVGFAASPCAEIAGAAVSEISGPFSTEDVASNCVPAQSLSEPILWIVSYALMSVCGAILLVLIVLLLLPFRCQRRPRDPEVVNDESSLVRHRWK
UniProt P56817, 46-501 limits assumed: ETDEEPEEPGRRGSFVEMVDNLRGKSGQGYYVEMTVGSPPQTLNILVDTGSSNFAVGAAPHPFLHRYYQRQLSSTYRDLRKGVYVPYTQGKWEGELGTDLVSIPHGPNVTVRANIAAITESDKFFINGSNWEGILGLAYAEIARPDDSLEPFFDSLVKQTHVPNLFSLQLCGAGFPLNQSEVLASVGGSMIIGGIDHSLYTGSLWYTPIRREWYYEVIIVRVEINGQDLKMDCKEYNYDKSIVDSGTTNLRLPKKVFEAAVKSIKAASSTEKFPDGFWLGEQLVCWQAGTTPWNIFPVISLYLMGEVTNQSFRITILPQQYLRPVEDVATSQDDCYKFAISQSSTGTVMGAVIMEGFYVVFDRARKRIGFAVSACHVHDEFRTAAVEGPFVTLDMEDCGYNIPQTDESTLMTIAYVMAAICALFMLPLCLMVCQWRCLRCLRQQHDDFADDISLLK

What was measured:
human BACE2 = human BACE2 (Homo sapiens, UniProt Q9Y5Z0); assay: Fluorescent kinetic assay for human recombinant BACE 2 (WABC-6 peptide substrate); assay type: biochemical; settings: read-out: IC50 (μM) BACE2.; 1.5 nM enzyme, 25 μM substrate, pH 4.5, room temperature
human BACE1 = human BACE1 (Homo sapiens, UniProt P56817); assay: Fluorescent kinetic assay, inhibition of BACE1 (WABC-6 peptide substrate); assay type: biochemical; settings: read-out: IC50 (μM) BACE1.; 10 nM enzyme, 25 μM substrate, pH 4.5, room temperature

- IC50 (human BACE2): 1.66 µM
- IC50 (human BACE1): 0.04 µM
SMILES: NC1=NC(c2ccc(OC(F)F)cc2)(c2cccc(-c3ccc(F)nc3)c2)C2=NCCCN12 (centres unmarked)
